Laboratory results: published antibiotic growth screens (doi:10.1038/s41589-023-01349-8)
The list shows a part of the results.

tested on: A. baumannii ATCC 17978; assay: relative growth (fraction of control); higher = less inhibition; conditions: 50 µM

Compound	relative growth
Nc1nc(NC2CC2)c2ncn(C3C=C[C@@H](CO)C3)c2n1.O=S(=O)(O)O (stereo not given in full)	1.08
C[C@@H]1CC[C@H]2[C@@H](C)C(O)O[C@@H]3O[C@]4(C)CC[C@@H]1[C@]32OO4 (stereo not given in full)	0.878
O=C1CN(/N=C/c2ccc([N+](=O)[O-])o2)C(=O)N1	0.964
COc1cccc(S(=O)(=O)Nc2ccc3c(c2)OC[C@H](C)N(C(=O)Cc2cccnc2)C[C@H](C)[C@H](OC)CN(C)C3=O)c1	1.02
COc1cccc(S(=O)(=O)N[C@@H]2C=C[C@@H](CC(=O)NC3CCC3)O[C@H]2CO)c1	1.03
Cc1ccccc1OCC(O)CO (stereo not given)	1.07
O=C(C[C@H]1CC[C@@H]2[C@H](COC[C@H](O)CN2S(=O)(=O)c2cccc(Cl)c2)O1)NCCCN1CCOCC1	0.826
COC(=O)CCc1c(C)[nH]c(=S)[nH]c1=O	1.1
CCCNC(=O)N1C[C@H](O)COC[C@H]2O[C@H](CC(=O)N3CCOCC3)CC[C@@H]21	1.12
COc1ccc(CNC(=S)NN)cc1	0.895
CN(C)CCOC(C)(c1ccccc1)c1ccccn1.O=C(O)CCC(=O)O (stereo not given)	1.2
O=C(O)[C@@H]1CC(=O)N(c2ccc3c(c2)OCO3)C1	1.08
NCC[C@H]1CC[C@@H](NC(=O)Cc2ccncc2)[C@@H](CO)O1	0.917
O=C(O)c1cc(-n2cnnn2)ccc1O	0.972
CN(C)CCCCNC(=O)[C@@H]1C[C@@H]2C(=O)N[C@@H](CCCCN)C(=O)N2[C@@H]1c1ccc(O)cc1	1.12
CC(=O)c1ccc2ccccc2c1O	0.977
CO[C@@H]1CN(C)C(=O)c2ccc(NC(C)=O)cc2OC[C@H](C)N(S(=O)(=O)c2cn(C)cn2)C[C@H]1C	1.07
CC(=O)OCC(=O)[C@@]1(O)CCC2C3CCC4=CC(=O)CC[C@]4(C)C3C(=O)C[C@@]21C (stereo not given in full)	0.985
CC1(C)C(C(=O)O)N2C(=O)C[C@H]2S1(=O)=O (stereo not given in full)	0.166
O=C(Cc1ccncc1)NCC[C@H]1CC[C@@H](NC(=O)C2CCOCC2)[C@@H](CO)O1	1.03
CO[C@H]1CN(C)C(=O)c2cc(NC(=O)Nc3ccccc3F)ccc2OC[C@@H](C)N(Cc2ccccc2C(=O)O)C[C@@H]1C	0.987
C[C@H](CO)N1C[C@H](C)[C@@H](CN(C)S(=O)(=O)c2ccccc2F)Oc2cc(C#Cc3cccc(F)c3)ccc2S1(=O)=O	1.11
COC[C@H]1CN(C(=O)c2cccc(OC)c2)N1	1
C[C@@H]1CN([C@H](C)CO)C(=O)c2cc(Br)cnc2O[C@H]1CN(C)C(=O)Nc1ccc(F)cc1	0.887
O=C(CN1CCOCC1)NCC[C@H]1CC[C@H](NC(=O)c2ccccc2F)[C@H](CO)O1	0.971
